Assay results from patent publication US9006242B2, “Substituted benzene compounds” (Epizyme, Inc., priority 2012, dated 2015).

The chains behind the UniProt entries cited, without tags or fusion partners. A line that says so, or that is headed by a name, gives the form on record, which may keep a tag or linker.
UniProt Q15910, other isoform, or with tags, fused parts or gaps: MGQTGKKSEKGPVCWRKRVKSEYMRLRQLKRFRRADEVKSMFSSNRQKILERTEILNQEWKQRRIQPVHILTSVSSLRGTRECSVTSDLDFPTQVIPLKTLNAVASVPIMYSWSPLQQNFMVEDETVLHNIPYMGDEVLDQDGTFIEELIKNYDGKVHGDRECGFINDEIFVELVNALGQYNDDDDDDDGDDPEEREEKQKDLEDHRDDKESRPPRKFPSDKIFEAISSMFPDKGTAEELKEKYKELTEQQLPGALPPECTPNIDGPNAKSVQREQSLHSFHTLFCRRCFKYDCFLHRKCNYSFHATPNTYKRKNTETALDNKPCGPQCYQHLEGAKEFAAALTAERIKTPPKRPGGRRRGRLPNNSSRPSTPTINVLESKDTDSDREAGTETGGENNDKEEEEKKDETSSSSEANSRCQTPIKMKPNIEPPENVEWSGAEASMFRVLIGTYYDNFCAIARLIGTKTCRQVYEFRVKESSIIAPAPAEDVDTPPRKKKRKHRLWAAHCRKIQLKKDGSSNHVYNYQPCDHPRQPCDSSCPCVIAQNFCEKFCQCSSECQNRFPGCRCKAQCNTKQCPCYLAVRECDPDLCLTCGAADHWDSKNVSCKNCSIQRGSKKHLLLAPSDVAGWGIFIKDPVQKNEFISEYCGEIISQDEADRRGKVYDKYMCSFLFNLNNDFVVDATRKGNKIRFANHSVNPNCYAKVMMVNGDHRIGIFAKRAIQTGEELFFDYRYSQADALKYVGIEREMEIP

Columns and labels:
[1] = system: Karpas-422 xenograft; assay: Efficacy study in Karpas-422 xenograft model; assay type: in vivo, mice
[2] = mouse, in vivo, po
[3] = biological target: EZH2 (PRC2 complex) (Homo sapiens (Human), UniProt Q15910); assay: PRC2 enzyme assay on peptide substrate (EZH2 peptide v2)

## CCN(c1cc(-c2ccc(CN3CCOCC3)cc2)cc(C(=O)NCc2c(C)cc(C)[nH]c2=O)c1C)C1CCOCC1 [Compound A, N-((4,6-dimethyl-2-oxo-1,2-dihydropyridin-3-yl)methyl)-5-(ethyl(tetrahydro-2H-pyran-4-yl)amino)-4-methyl-4′-(morpholinomethyl)-[1,1′-biphenyl]-3-carboxamide, reference compound]
[1]; 250 mg/kg BID x28, p.o.
  tumors large enough for analysis at day 28: too small for analysis
[1]; oral, BID, up to 28 days, 62.5-500 mg/kg
  anti-tumor effect in Karpas-422 xenograft model (in words): tumor stasis and regression
[2]
  tolerability (in words): well tolerated

## CCN(c1cc(-c2ccc(OCCOC)cc2)cc(C(=O)NCc2c(C)cc(C)[nH]c2=O)c1C)[C@H]1CC[C@H](N(C)C)CC1 [Compound 1, N-((4,6-dimethyl-2-oxo-1,2-dihydropyridin-3-yl)methyl)-5-(((trans)-4-(dimethylamino)-cyclohexyl)(ethyl)-amino)-4′-(2-methoxyethoxy)-4-methyl-[1,1′-biphenyl]-3-carboxamide]
[3]
  IC50: < 5 nM
